Screens deposited in PubChem by National Center for Advancing Translational Sciences (NCATS).
PINK1 expr mod: modulators of PINK1 expression | 0.2% of 410,000 active | AID 624263 | PINK1 immunofluorescence, high-content cytometry, 24 h | Potency, µM (series often up to 76.6 µM), inactives show top-dose activation (PINK1 increase), most hits filed as activators; active = well fitted activation curve with a large enough effect; inconclusive = small, poorly fitted or top-dose-only effect; cell line not stated here; also: potency is read from the fitted curve at half-maximal effect; % of control where 0% means no effect; nearly all actives have a fitted effect of over 65% in size
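Stable cell line treated 24 h with compounds at 5 concentrations (CCCP controls), then fixed and immunostained for PINK1 plus nuclear and cell stains; PINK1 immunofluorescence quantified by laser-scanning microplate cytometry.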
miR-21 reporter: miR-21 reporter, rising signal | HeLa miR-21 FLuc reporter, luciferase, 48 h | Potency, µM (top dose mostly 38.3 µM), inactives show at the top dose reporter change, positive = more light | 340,000 tested, under 10 active | AID 2288; active = well fitted rising curve with a large enough effect; inconclusive = small, poorly fitted or top-dose-only effect; inactive = no such curve, though single readings can be large or run the other way;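 further: % of control where 0% means no effect; miR-21 action dims this reporter so a rising signal means less miR-21 action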
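HeLa cells stably expressing CMV-driven firefly luciferase with a downstream miR-21 binding sequence, endogenously expressing miR-21, were treated with titrations (up to about 40uM final) for 48 hours at 37 degree Celsius. Luciferase luminescence was read after lysis.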
TCR activator: activates T cell receptor signaling | primary human leukocytes, anti-CD3, IL-2 HTRF, 48 h | Potency, µM (highest dose often 9.22 µM), for the others: top-dose activation of IL-2 secretion, usual class: activators | 330,000 tested, under 10 active; also: % of control where 0% means no effect
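HTRF read-out of IL-2 secretion: europium cryptate donor excited at 320nm, d2 acceptor emission at 665nm. Cells were primary human leukocytes incubated 48 hr with compounds and a-CD3 beads, supplying TCR signal only.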
RXFP1 agonist: agonists of human relaxin receptor RXFP1; Q9HBX9; HEK293T-RXFP1 cAMP TR-FRET, 30 min; response scale: percent of porcine relaxin response, buffer zero; Potency, µM (top dose mostly 57.5 µM), without a hit: at the highest dose activation, actives largely listed as activators; 0.3% of 370,000 active; also: potency is read from the fitted curve at half-maximal effect; % is scaled to controls: 0 for no effect and ±100 for the full control effect; nearly all actives have a fitted effect of over 60% in size
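Agonist response is measured as cAMP accumulation in an RXFP1-transfected HEK293T line under PDE4 inhibition. Values are scaled between buffer-only and 29 nM porcine relaxin, and EC50s come from standard Hill equation fits.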
RXFP1 antag: antagonists of human relaxin receptor RXFP1; Q9HBX9; HEK293-RXFP1, relaxin-stimulated cAMP HTRF, 30 min; active compounds read low; activity change, negative = inhibition, % at 57.5 µM; 0.59% of 350,000 active; AID 1259400;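 active = activity change of -60% or lower, but not beyond a set lower limit; inconclusive = change between -60% and -40%, or beyond the set limit; inactive = change above -40%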; also: % is scaled to controls: 0 for no effect and ±100 for the full control effect
IL-2 act: activates IL-2 in a cell-based reporter assay | IL-2 activation reporter assay, cell-based qHTS; stimulated with anti-CD3/CD4/CD28 beads; in transgenic mouse T cells | activation, % (series mostly up to about 46 µM) | 0.065% of 360,000 active | AID 652025; in the data active = activation above about 50%; inconclusive = mostly about 30% to 49%; also: 0% is about no effect
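Unstimulated transgenic mouse T cells preincubated 60 min with compound, then stimulated with anti-CD3/anti-CD4-coated beads plus anti-CD28 for 18 h at 37 degrees C. IL-2 response read as EGFP and DsRed fluorescence by plate cytometry.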
Numbers without * were called inactive; ! = repeats disagree; [ ] = another dose, or the depositor's remark. Rows were chosen to be rich in hits. Some 0.78% of all compounds tested hit in one or more screens of this group. Unless noted, calls follow the shape of the dose curve; as a rule, active = well fitted curve in the direction sought with a large enough effect; inconclusive = small, poorly fitted or top-dose-only effect, or another doubt; inactive = no such curve, though single readings can be large; an effect the other way counts as inactive or inconclusive.

`Cc1cccc(OCC(O)Cn2c(=N)n(CCN3CCCCC3)c3ccccc32)c1` (stereo not given) gave PINK1 expr mod -31%[38.3 µM], miR-21 reporter 9%, TCR activator 1%, RXFP1 agonist 2%, RXFP1 antag -63*! and IL-2 act -4.
CCN(CC)CCn1c(=N)n(CC(O)COc2cccc(C)c2)c2ccccc21 (stereo not given) was read as PINK1 expr mod 1%, miR-21 reporter 4%, TCR activator -1%, RXFP1 agonist 1%, RXFP1 antag inconclusive and IL-2 act -1.
For Cc1cnc(C)c(-c2cccc3c2OC(CNC(=O)CN2C(=O)c4ccccc4C2=O)C3)n1 (stereo not given) the results were PINK1 expr mod -1%.
`CC(/C=C1\SC(=S)N(CCC(=O)Nc2nc(C)cs2)C1=O)=C\c1ccccc1` gave PINK1 expr mod 40µM*, miR-21 reporter -1%, TCR activator 6%, RXFP1 agonist 1%, RXFP1 antag 0 and IL-2 act -2.
Screening CC(/C=C1\SC(=S)N(CCC(=O)Nc2ccc(O)cc2)C1=O)=C\c1ccccc1 returned PINK1 expr mod 6%, miR-21 reporter 2%, TCR activator 1%, RXFP1 agonist -2%, RXFP1 antag -3 and IL-2 act -2.
Cc1ccccc1CN1CCc2nnc(C(C)NC(=O)C3CCN(C)CC3)n2CC1 (stereo not given) was read as PINK1 expr mod 1%.
Screening COc1ccc(C(C)=O)cc1CN1C(=O)NC2(CCCCCCC2)C1=O returned PINK1 expr mod 0%, miR-21 reporter -2%, TCR activator -5%, RXFP1 agonist 0%, RXFP1 antag -14 and IL-2 act -1.
CCOc1ccc(C(C)=O)cc1CN1C(=O)NC2(CCCCCC2)C1=O was read as PINK1 expr mod -1%, miR-21 reporter -1%, TCR activator 1%, RXFP1 agonist -1%, RXFP1 antag -101* and IL-2 act 1.
CN(C)CCCN(C(=O)c1ccc2c(c1)OCCO2)c1nc2ccc(Cl)cc2s1 was read as miR-21 reporter -26% and RXFP1 agonist 1%.
For Cc1ccc2nc(N(CCCN(C)C)C(=O)c3ccc(S(=O)(=O)N4CCc5ccccc5C4)cc3)sc2c1 the results were PINK1 expr mod -2%, miR-21 reporter 24%, RXFP1 agonist 0%, RXFP1 antag -65* and IL-2 act -1.
Screening CCc1ccc2nc(N(CCN(C)C)C(=O)c3ccc4ncsc4c3)sc2c1 returned PINK1 expr mod 1%, miR-21 reporter -55%, RXFP1 agonist 1%, RXFP1 antag -68* and IL-2 act -1.
`Cc1cccc2sc(N(CCCN(C)C)C(=O)c3ccc4ncsc4c3)nc12` gave PINK1 expr mod 0%, miR-21 reporter -35%, TCR activator 0%, RXFP1 agonist 3%, RXFP1 antag -14 and IL-2 act -1.
Cc1ccc(C(=O)N(CCCN(C)C)c2nc3ccc(Cl)cc3s2)cc1C was read as PINK1 expr mod 8%, miR-21 reporter 7%, TCR activator 10%, RXFP1 agonist 0%, RXFP1 antag -100* and IL-2 act 2.
`O=C(CN1Cc2ccccc2OC(c2ccccc2)C1)NCc1cccnc1` (stereo not given) gave PINK1 expr mod 0%.
For O=C(Nc1c(Cl)cccc1Cl)c1cc(=O)n(Cc2ccccc2)c(=O)[nH]1 the results were PINK1 expr mod 10µM*, miR-21 reporter -11%, RXFP1 agonist 1%, RXFP1 antag 20 and IL-2 act -2.
For Cc1nc2sccn2c1CN1CCOc2ccc(CN3C[C@@H](C)O[C@@H](C)C3)cc2C1 the results were PINK1 expr mod 0%.
CNC(=O)c1nnsc1S(=O)(=O)c1ccc(Cl)cc1 was read as PINK1 expr mod 0%, miR-21 reporter inconclusive, TCR activator 1%, RXFP1 agonist -3%, RXFP1 antag -83* and IL-2 act -1.
O=C(Nc1nc2c(Cl)cccc2s1)c1ccc(Br)o1 was read as PINK1 expr mod 14µM*, miR-21 reporter -18%, RXFP1 agonist 28%, RXFP1 antag -39 and IL-2 act 3.
`O=C(Nc1nc2c(Cl)cccc2s1)c1ccc([N+](=O)[O-])o1` gave PINK1 expr mod inconclusive, miR-21 reporter 11%, TCR activator -5%, RXFP1 agonist 0%, RXFP1 antag -1 and IL-2 act 1.
For COc1cc(=O)n2c(c1C(=O)NCc1ccc3c(c1)OCO3)CCN(C(=O)c1ccc(C)cc1)CC2 the results were PINK1 expr mod 0%.

By substructure, the compounds so far containing an aryl methoxy group.
Screening COc1ccc(C(C)=O)cc1CN1C(=O)NC2(CCCCCCC2)C1=O returned PINK1 expr mod 0%, miR-21 reporter -2%, TCR activator -5%, RXFP1 agonist 0%, RXFP1 antag -14 and IL-2 act -1.
For COc1cc(=O)n2c(c1C(=O)NCc1ccc3c(c1)OCO3)CCN(C(=O)c1ccc(C)cc1)CC2 the results were PINK1 expr mod 0%.

Carrying on.
`O=C(NC(NNc1ccc([N+](=O)[O-])cc1)(C(F)(F)F)C(F)(F)F)c1ccc(F)cc1` gave PINK1 expr mod 45µM*, miR-21 reporter 29%, TCR activator -12%[46.1 µM], RXFP1 agonist -1%, RXFP1 antag -16 and IL-2 act 0.
O=[N+]([O-])c1ccc(NNC(=S)Nc2ccc(F)cc2)cc1 was read as PINK1 expr mod 14µM*, miR-21 reporter 15%, TCR activator 3%[46.1 µM], RXFP1 agonist -4%, RXFP1 antag -15 and IL-2 act -2.
For CC(=O)N[C@@H](C)C(=O)NCC1Cc2cccc(-c3ccccc3C(F)(F)F)c2O1 (stereo not given in full) the results were PINK1 expr mod 0%.
O=C(O)Cc1ccc2c(c1)C(=O)c1ccccc1CO2 was read as RXFP1 antag -22.
Screening COc1cc(C2Nc3c(F)cccc3C3C=CCC32)cc(Br)c1OC (stereo not given) returned PINK1 expr mod 21%, miR-21 reporter -2%, TCR activator -2%, RXFP1 agonist -2%, RXFP1 antag -65* and IL-2 act 1.
Screening CC(=O)Nc1ccc(S(=O)(=O)N2CCCc3ccccc32)cc1 returned PINK1 expr mod 3.2µM*, miR-21 reporter 18%, RXFP1 agonist 0%, RXFP1 antag 19 and IL-2 act -2.
Screening COc1ccc(-c2nnc(NC(=O)c3ccc(S(=O)(=O)N4CCCc5ccccc54)cc3)o2)cc1 returned PINK1 expr mod 8%, miR-21 reporter -4%, TCR activator -6%, RXFP1 agonist 2%, RXFP1 antag -65* and IL-2 act -2.
`Cc1ccc([N+](=O)[O-])cc1N=Nc1c(C)[nH]n(C(N)=S)c1=O` gave PINK1 expr mod 1%, miR-21 reporter -5%, TCR activator 1%, RXFP1 agonist 1%, RXFP1 antag -2 and IL-2 act 1.

Reprinted at random: two records from the list.
For CC(=O)N[C@@H](C)C(=O)NCC1Cc2cccc(-c3ccccc3C(F)(F)F)c2O1 (stereo not given in full) the results were PINK1 expr mod 0%.
O=[N+]([O-])c1ccc(NNC(=S)Nc2ccc(F)cc2)cc1 was read as PINK1 expr mod 14µM*, miR-21 reporter 15%, TCR activator 3%[46.1 µM], RXFP1 agonist -4%, RXFP1 antag -15 and IL-2 act -2.
